Source: PMC7290078, “Agonist bias and agonist‐dependent antagonism at corticotrophin releasing factor receptors” (Pharmacology Research & Perspectives, 2020)

Assays:
Format in all cases: cell-based
CRF1 receptor (hCRF1α) [1] = biological target: T1, CRF1 receptor (hCRF1α) (Homo sapiens, UniProt P34998); test: ERK1/2 phosphorylation (AlphaLISA Surefire Ultra) in Cos7 cells transfected with hCRF1α; conditions: pERK1/2, hCRF1α, 7 min at 37°C, 1 pmol/L to 1 µmol/L agonist, mean ± SEM, n = 5
T1 construct: host or cells: Cos7 cells, transient transfection (PEI), pcDNA3.0/3.1 vector
T1 sequence (P34998 24-415): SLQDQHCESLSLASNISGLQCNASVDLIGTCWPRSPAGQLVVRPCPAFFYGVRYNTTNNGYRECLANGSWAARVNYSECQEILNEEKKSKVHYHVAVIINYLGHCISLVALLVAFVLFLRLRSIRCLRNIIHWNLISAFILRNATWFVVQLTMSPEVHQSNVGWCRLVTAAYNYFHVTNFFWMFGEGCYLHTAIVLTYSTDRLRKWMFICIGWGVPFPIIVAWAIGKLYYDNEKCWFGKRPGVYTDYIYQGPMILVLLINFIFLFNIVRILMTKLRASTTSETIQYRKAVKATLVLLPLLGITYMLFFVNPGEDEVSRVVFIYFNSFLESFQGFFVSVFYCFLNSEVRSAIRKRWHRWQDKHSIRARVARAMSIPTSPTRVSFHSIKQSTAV
Description: (§1) Plasmids containing hCRF1α and hCRF2α (GenBank accession numbers AY457172 and AY449734) were obtained from the cDNA Resource Centre (Bloomsburg University) and are referred to as CRF1 and CRF2 in this manuscript. Hemagglutinin (HA) epitope‐tagged human Calcitonin (CT) receptor (CT(a) splice variant) and myc‐tagged human RAMP1 were used as described previously. ^27 HA‐tagged human calcitonin receptor‐like receptor (CLR), N‐terminal FLAG‐tagged human RAMP3 and N‐terminal myc‐tagged human RAMP3 were a gift from Professor David Poyner (Aston University) and Professor Patrick Sexton (Monash University), respectively. N‐terminal FLAG‐tagged human RAMP2 was used as described previously. ^28 All receptors and RAMPs were cloned in pcDNA3.0 or pcDNA3.1 plasmid vectors. […]
(§2) Cos7, HEK‐293S, and HEK‐293T cells were cultured as described previously. ^28 , ^29 Cos7 cells were originally supplied by the ATCC to Associate Professor Nigel Birch (University of Auckland). […] For transfection, cells were counted (Countess CounterTM; Life Technologies) and plated at a density of 20 000 cells per well in 96‐well plates. […]
(§3) The AlphaLISA Surefire Ultra extracellular signal‐regulated kinase 1/2 (ERK1/2) phosphorylation (pERK1/2) assay kit (PerkinElmer Life and Analytical Sciences) was used to measure pERK1/2 in cell lysates after agonist stimulation. […] Samples were read using an Envision plate reader (PerkinElmer). […]

CRF2 receptor (hCRF2α) [2] = biological target: T2, CRF2 receptor (hCRF2α) (Homo sapiens, UniProt Q13324); test: ERK1/2 phosphorylation (AlphaLISA Surefire Ultra) in Cos7 cells transfected with hCRF2α; conditions: pERK1/2, hCRF2α, 7 min at 37°C, 1 pmol/L to 1 µmol/L agonist, mean ± SEM, n = 5
T2 construct: host or cells: Cos7 cells, transient transfection (PEI), pcDNA3.0/3.1 vector
T2 sequence (Q13324 1-411): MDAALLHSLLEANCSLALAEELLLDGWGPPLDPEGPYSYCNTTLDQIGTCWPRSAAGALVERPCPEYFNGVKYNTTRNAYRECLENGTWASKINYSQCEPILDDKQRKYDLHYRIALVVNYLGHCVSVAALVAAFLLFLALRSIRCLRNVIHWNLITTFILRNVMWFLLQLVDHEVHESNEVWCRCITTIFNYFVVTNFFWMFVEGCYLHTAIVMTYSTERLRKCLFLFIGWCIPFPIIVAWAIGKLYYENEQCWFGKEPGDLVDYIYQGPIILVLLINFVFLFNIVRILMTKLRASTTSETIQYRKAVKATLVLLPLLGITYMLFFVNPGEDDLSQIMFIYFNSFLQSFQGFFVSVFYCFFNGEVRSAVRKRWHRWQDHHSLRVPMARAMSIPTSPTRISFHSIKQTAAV
Description: as §1, §2, §3

CRF2 receptor (hCRF2α) [3] = biological target: T2, CRF2 receptor (hCRF2α); test: IP1 accumulation (IP-one Gq) in Cos7 cells transfected with hCRF2α, agonist stimulation; conditions: 90 min at 37°C, 50 mmol/L LiCl, 1 pmol/L to 10 µmol/L agonist, mean ± SEM, n = 5
Description: as §1, with “respectively.” for “respectively. N‐terminal FLAG‐tagged human RAMP2 was used as described previously. ^28 All receptors and RAMPs were cloned in pcDNA3.0 or pcDNA3.1 plasmid vectors.”
as §2
(§4) The IP‐one Gq assay kit (Cisbio) was used to quantify accumulated myo‐inositol‐1‐phosphate (IP1), a by‐product of IP3 produced after receptor‐mediated Gαq activation in Cos7 and HEK‐293S cells. […] Fifteen microliters of sample was then transferred to a 384‐well optiplate and read by an Envision plate reader (PerkinElmer). IP1 concentrations were calculated from a standard curve generated in duplicate. […]

CRF2 receptor (hCRF2α) [4] = biological target: T2, CRF2 receptor (hCRF2α); test: cAMP accumulation (LANCE) in Cos7 cells transfected with hCRF2α, agonist stimulation; conditions: 15 min at 37°C, 1 mmol/L IBMX, 1 pmol/L to 1 µmol/L agonist, mean ± SEM, n = 5
Description: as §1, with “respectively.” for “respectively. N‐terminal FLAG‐tagged human RAMP2 was used as described previously. ^28 All receptors and RAMPs were cloned in pcDNA3.0 or pcDNA3.1 plasmid vectors.”
as §2
(§5) cAMP accumulation in Cos7 cells transfected with hCRF1α or hCRF2α receptors was measured using the LANCE cAMP detection assay kit (PerkinElmer Life and Analytical Sciences) as described previously. ^30 Briefly, culture media was removed and replaced with DMEM containing 0.1% bovine albumin serum (BSA) and 1 mmol/L 3‐isobutyl‐1‐methylxanthine (IBMX) for 30 minutes at 37°C. […]

CRF1 receptor (hCRF1α) [5] = biological target: T1, CRF1 receptor (hCRF1α); test: IP1 accumulation (IP-one Gq) in Cos7 cells transfected with hCRF1α, agonist stimulation; conditions: 90 min at 37°C, 50 mmol/L LiCl, 1 pmol/L to 10 µmol/L agonist, mean ± SEM, n = 5
Description: as §1, with “respectively.” for “respectively. N‐terminal FLAG‐tagged human RAMP2 was used as described previously. ^28 All receptors and RAMPs were cloned in pcDNA3.0 or pcDNA3.1 plasmid vectors.”
as §2, §4

CRF1 receptor (hCRF1α) [6] = biological target: T1, CRF1 receptor (hCRF1α); test: cAMP accumulation (LANCE) in Cos7 cells transfected with hCRF1α, agonist stimulation; conditions: 15 min at 37°C, 1 mmol/L IBMX, 1 pmol/L to 1 µmol/L agonist, mean ± SEM, n = 5
Description: as §1, with “respectively.” for “respectively. N‐terminal FLAG‐tagged human RAMP2 was used as described previously. ^28 All receptors and RAMPs were cloned in pcDNA3.0 or pcDNA3.1 plasmid vectors.”
as §2, §5

CC[C@H](C)[C@H](NC(=O)[C@H](CCC(N)=O)NC(=O)[C@H](C)NC(=O)[C@H](CCSC)NC(=O)[C@H](CC(C)C)NC(=O)[C@H](Cc1c[nH]cn1)NC(=O)[C@H](C)NC(=O)[C@H](CC(N)=O)NC(=O)[C@H](C)NC(=O)[C@H](C)NC(=O)[C@H](C)NC(=O)[C@H](CCC(N)=O)NC(=O)[C@H](C)NC(=O)[C@H](CCCNC(=N)N)NC(=O)[C@H](CC(C)C)NC(=O)[C@H](CC(N)=O)NC(=O)[C@H](CCCCN)NC(=O)[C@H](C)NC(=O)[C@H](CCCCN)NC(=O)[C@H](C)NC(=O)[C@@H](NC(=O)[C@H](CC(N)=O)NC(=O)[C@H](Cc1ccccc1)NC(=O)[C@H](CC(C)C)NC(=O)[C@H](CC(C)C)NC(=O)[C@H](CC(N)=O)NC(=O)[C@H](CCSC)NC(=O)[C@@H](NC(=O)[C@H](CC(N)=O)NC(=O)[C@@H](NC(=O)[C@@H]1CCCN1C(=O)[C@@H](NC(=O)[C@H](CC(=O)O)NC(=O)[C@H](CC(C)C)NC(=O)[C@H](CO)NC(=O)[C@H](CC(C)C)NC(=O)[C@@H](NC(=O)[C@@H](N)Cc1ccccc1)[C@@H](C)O)C(C)C)[C@@H](C)O)[C@@H](C)CC)[C@@H](C)CC)C(N)=O [UCN3]
EC50 (CRF1 receptor (hCRF1α) [1]): > 1000 nM | EC50 (CRF2 receptor (hCRF2α) [2]): 0.661 nM | EC50 (CRF2 receptor (hCRF2α) [3]): 51.3 nM | EC50 (CRF2 receptor (hCRF2α) [4]): 0.0457 nM | EC50 (CRF1 receptor (hCRF1α) [5]): > 1000 nM | EC50 (CRF1 receptor (hCRF1α) [6]): > 1000 nM
